Values quoted from earlier work in patent publication US5077035A, “Radioiodinated benzovesamicol analogs for cholinergic nerve mapping” (priority 1990, dated 1991).

Conditions: single passage through the cerebral circulation; cited from earlier work

## technetium-99m hexamethylpropylenamine oxime
  Blood-brain barrier passage and blood clearance (in words): crosses the blood-brain barrier and is completely cleared from the blood in a single passage through the cerebral circulation
